The values below come from ChEMBL document CHEMBL1135740, “Design, synthesis, and activity of a novel series of factor Xa inhibitors: optimization of arylamidine groups” (J Med Chem, 2002).

The chains behind the UniProt entries cited, without tags or fusion partners. Residues count along the entry.
UniProt P00742, 41-179 limits assumed: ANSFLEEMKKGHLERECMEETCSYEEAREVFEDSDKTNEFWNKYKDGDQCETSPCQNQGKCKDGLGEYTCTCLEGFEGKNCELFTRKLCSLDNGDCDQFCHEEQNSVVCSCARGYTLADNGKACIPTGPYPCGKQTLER
UniProt P00742, 235-488 limits assumed: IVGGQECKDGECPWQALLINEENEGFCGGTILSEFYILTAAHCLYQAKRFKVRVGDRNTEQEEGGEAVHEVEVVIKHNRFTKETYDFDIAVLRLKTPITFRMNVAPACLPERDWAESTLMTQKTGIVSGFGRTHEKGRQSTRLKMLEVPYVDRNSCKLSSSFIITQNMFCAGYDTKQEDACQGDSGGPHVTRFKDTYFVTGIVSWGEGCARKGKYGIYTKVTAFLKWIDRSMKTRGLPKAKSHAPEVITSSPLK

This experiment deals with Coagulation factor X (Homo sapiens, UniProt P00742). Description: Inhibitory constant against human coagulation factor Xa (fXa).

Broadly, the Ki is a dissociation constant, usually derived from enzyme kinetics or from competition with a known ligand. The low end stands for higher affinity, the high end for lower affinity. In turn, `Cc1c(F)c(Oc2cccc(C(=N)N)c2)nc(Oc2cc(N(C)C)ccc2C(=O)O)c1F` came in with an inhibitory constant (Ki) of 2400 nM.
